Biological target: 5-hydroxytryptamine receptor 1A (Homo sapiens, UniProt P08908)
Assay: Agonist activity at recombinant human 5HT1A receptor expressed in human HeLa cell membranes assessed as stimulation of [35S]GTPgammaS binding preincubated for 20 mins followed by [35S]GTPgammaS addition measured after 30 mins by liquid scintillation counting method
Assay type: functional

Chains of the proteins cited; added tags and fusions are not shown.
UniProt P08908, whole entry: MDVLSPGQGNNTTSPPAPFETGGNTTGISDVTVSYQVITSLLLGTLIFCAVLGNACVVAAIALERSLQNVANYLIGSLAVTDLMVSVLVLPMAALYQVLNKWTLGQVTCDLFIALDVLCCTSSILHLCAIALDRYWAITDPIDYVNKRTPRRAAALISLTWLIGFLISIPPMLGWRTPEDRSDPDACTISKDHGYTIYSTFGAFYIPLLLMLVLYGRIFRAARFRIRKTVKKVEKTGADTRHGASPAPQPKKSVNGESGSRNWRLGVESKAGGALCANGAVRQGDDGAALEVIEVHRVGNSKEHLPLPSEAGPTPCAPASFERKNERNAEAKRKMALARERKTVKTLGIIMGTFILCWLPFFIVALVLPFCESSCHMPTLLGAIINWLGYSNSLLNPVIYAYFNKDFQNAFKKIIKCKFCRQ

pD2: 7.83
SMILES: COc1ccccc1OCCNC[C@@H]1COC[C@H](c2ccccc2)O1 (racemic)
